Experimental data reported in patent US7135295B1, “Detection of small molecules by use of a piezoelectric sensor” (dated 2006).

Key:
5B3 antibody = assay: ELISA binding / inhibition assay of 5B3 antibody with haptens
DNP-Ab/anti-Ab complex = assay: QCM amplified competition method with DNP-Ab/anti-Ab probe; settings: 3.1×10^−12 g; reference without analyte −85 Hz (FIG. 25 curve c)

| SMILES | binding of 5B3 mAb to hapten (5B3 antibody) | crystal frequency change Δf (DNP-Ab/anti-Ab complex) [Hz] |
| --- | --- | --- |
| O=C(O)C1C=CC([N+](=O)[O-])=CC1(O)[N+](=O)[O-] (centres unmarked) | does not bind avidly | – |
| O=[N+]([O-])c1ccc(O)c([N+](=O)[O-])c1 | – | −12 |
